Molecular target: T1, Recombinant Human TLR4 (R&D Systems) (human, UniProt O00206, in part; Q9Y6Y9, fluorescently labeled with RED-tris-NTA 2nd Generation dye (NanoTemper Monolith His-Tag Labeling Kit))
T1 construct: Toll-like receptor 4, human, recombinant, from R&D Systems; MD2 (MD-2, lymphocyte antigen 96), human; the methods name TLR4 alone, so it is not certain that this chain was present; no catalogue number is printed; also called Toll-like receptor 4; rTLR4/MD2; source: bought: R&D Systems
Test: MST; TLR4 labelled with RED-tris-NTA 2nd Generation (His-tag labelling kit) and kept at 5 nM; MBL titrated from 20.8 uM to 635 pM; 20 mM Tris-HCl pH 7.5, 150 mM NaCl, 5 mM CaCl2, 1 mM BME; standard capillaries, Monolith NT.115 pico, 20% LED power, high MST power; Kd model, in duplicate
Settings: both partners purified

Protein sequences, listed by entry. Tags and fused reporters are not part of them. Residues count along the entry.
UniProt O00206, 24-631, chain 1 of 2: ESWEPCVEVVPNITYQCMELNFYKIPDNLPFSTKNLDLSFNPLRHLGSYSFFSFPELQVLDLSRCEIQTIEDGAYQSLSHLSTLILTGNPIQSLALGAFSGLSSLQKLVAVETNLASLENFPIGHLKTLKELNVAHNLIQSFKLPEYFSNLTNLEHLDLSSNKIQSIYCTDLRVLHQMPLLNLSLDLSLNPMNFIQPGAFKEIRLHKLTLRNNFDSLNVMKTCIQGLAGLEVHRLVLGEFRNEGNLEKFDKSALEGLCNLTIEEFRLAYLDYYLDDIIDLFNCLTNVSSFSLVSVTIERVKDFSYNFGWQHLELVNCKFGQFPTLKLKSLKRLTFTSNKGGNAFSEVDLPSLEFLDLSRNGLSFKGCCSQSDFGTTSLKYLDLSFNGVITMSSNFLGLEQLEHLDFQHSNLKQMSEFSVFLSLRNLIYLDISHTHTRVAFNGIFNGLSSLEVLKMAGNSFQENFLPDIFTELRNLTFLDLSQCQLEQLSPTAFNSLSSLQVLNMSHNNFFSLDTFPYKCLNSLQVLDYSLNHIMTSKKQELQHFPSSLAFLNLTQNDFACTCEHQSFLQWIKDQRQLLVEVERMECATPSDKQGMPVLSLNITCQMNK
Recombinant Human TLR4 (R&D Systems), UniProt Q9Y6Y9, 19-160, chain 2 of 2: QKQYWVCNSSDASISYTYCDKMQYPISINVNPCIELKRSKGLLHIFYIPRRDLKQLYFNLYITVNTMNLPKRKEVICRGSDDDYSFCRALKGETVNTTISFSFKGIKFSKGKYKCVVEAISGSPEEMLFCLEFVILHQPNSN

B1: recombinant human MBL (mannan-binding lectin), clinical grade (natural protein, UniProt P11226 21-248, looked up)
chain: ETVTCEDAQKTCPAVIACSSPGINGFPGKDGRDGTKGEKGEPGQGLRGLQGPPGKLGPPGNPGPSGSPGPKGQKGDPGKSPDGDSSLAASERKALQTEMARIKKWLTFSLGKQVGNKFFLTNGEIMTFEKVKALCVKFQASVATPRNAAENGAIQNLIKEEAFLGITDEKTEGQFVDLTGNRLTYTNWNEGEPNNAGSDEDCVLLLKNGQWNDVPCSTSHLAVCEFPI
notes: also called rMBL; human rMBL; source: recombinant, clinical grade
B1 was tested. Which Kd did it give?
The Kd was 907 ± 263 nM.
